scFv variants of Ab-14 (heavy chain) against a SARS-CoV-2 spike peptide

The target is the same throughout: PDVDLGDISGINAS, from the HR2 region of SARS-CoV-2 spike.

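The parent was found by panning a naive human phage display library on the peptide. AAYL49 was designed without a model: most single CDR substitutions and a random sample of double and triple ones. The assay is AlphaSeq: two haploid yeast populations carry antibody and antigen on their surface. Pairs that bind mate more often; barcode pairs of the diploids are counted by sequencing. Each replicate has its own calibration line, from reference interactions of the BCL2 family. There are three technical replicates.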

Parent: Ab-14, a human scFv built as VH, three GGGGS repeats, VL. Only the CDRs of the heavy chain vary.
VH: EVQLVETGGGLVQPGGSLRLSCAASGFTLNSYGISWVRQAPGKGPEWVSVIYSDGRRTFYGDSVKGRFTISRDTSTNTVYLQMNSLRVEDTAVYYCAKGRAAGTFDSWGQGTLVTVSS
VL: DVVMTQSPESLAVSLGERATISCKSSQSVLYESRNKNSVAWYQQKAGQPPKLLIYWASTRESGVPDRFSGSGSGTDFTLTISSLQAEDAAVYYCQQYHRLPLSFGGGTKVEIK

Each variant is given by its three heavy chain CDRs, as the data file delimits them; those of the parent are GFTLNSYGIS, VIYSDGRRTFYGDSVK, GRAAGTFDS. Scale: log10 of Kd in nM, estimated from mating counts; low values are strong binders. An entry "ND" has no value in the source: the pair was not observed among the diploids in that replicate. This suggests poor binding but is not conclusive. As a blank, each scFv also met three strains without target: over library AAYL49, 15% of these pairings were detected, typically at 4.06 and seldom below 2.83.

CDR-H1,CDR-H2,CDR-H3,"replicates, log10 nM"
GFTLNSYGNS,VIYSDGRRTFYGDSVD,GVAAGTFDS,ND / ND / ND
GFLLNSYGIS,VIYSDGRRTFYGDSGK,GRARGTFDS,2.38 / ND / 4.10
GFTLNSYIIS,VIYSDGRRTFYGTSVK,GRAAGTFDS,5.01 / ND / 3.60
GDTLNSYGIS,VAYSDGRRTFYGDSVK,GRAAGTFPS,2.53 / ND / 4.39
GFTLNSGGIS,VIYSDGRRTFYGDSVK,GRHAGAFDS,ND / ND / ND
GLTLNSYGIS,VIYSDGRRTFYGDSVK,GRAQGTFLS,ND / ND / ND
AFTLNSYGIS,VIYSDGRRTFYLDSVK,GRAAGTFVS,1.31 / 1.89 / 1.69
GFTLNSYGIE,VIYSDGRRHFYGDSVK,GRADGTFDS,3.68 / ND / ND
GFTLNSYGIS,VIYSDGRRTFAGGSVK,GRAAGTFAS,ND / ND / ND
GCTLNSYGIS,VIYSDGRRTFYGDSFK,GRAAGTFDS,ND / ND / ND
GFTLNSYGIS,VIYSDGRRTFYGDTEE,GRAAGTFDS,4.32 / 3.89 / ND
GFTLNSYGIS,VIYSDVRRFFYGDSVK,GNAAGTFDS,ND / ND / ND
GFTLNSYGIS,VIYSGGRRTFYGDSVK,GRAAGTFTS,ND / ND / ND
GFTLNSYGMS,VIYSRGRRTFYGDSVK,GRAAGTFDS,ND / 3.66 / ND
GFTLNSYGIS,PIYSDGRRTFYGDSVK,GRAAGTFHY,4.58 / 4.33 / 5.58
GFTLNSYGYS,VIYSDKRRTFYGDGVK,GRAAGTFDS,ND / ND / ND
GFTLNSYGIY,VIYSDVRRTFYGDSVK,GRAAGTEDS,4.24 / 3.92 / ND
GFTLNSYWIS,VISSDGRWTFYGDSVK,GRAAGTFDS,ND / ND / ND
GFTLNIYGIS,VIYSDGRRTFYGDSVW,CRAAGTFDS,ND / ND / ND
GFTLNVYGIS,VIYSDGVRTFYGDSVW,GRAAGTFDS,4.15 / 3.13 / 3.90
GFTLNSYGIC,VIYSDGRRTGYGDSVK,GRAAGTFDS,ND / ND / ND
GFTLMSYSIS,VIKSDGRRTFYGDSVK,GRAAGTFDS,5.66 / ND / ND
GFTLNSYGIS,VTYSDGRITFYGDSVK,GRAAGTFDQ,4.62 / 4.54 / ND
GFTLNSYGIS,VIYSDGRRTFCGDSVK,GRAAWYFDS,3.54 / ND / 4.95
GFTLNSYGIS,VIYSDTRRTFYHDSVK,GRAAGTFDP,4.45 / ND / ND
GFTLNSYGIE,VIYIDSRRTFYGDSVK,GRAAGTFDS,3.81 / 4.58 / ND
GFTLNSYGIS,VIYSDGRDTFYGDSVK,GRATGTFDS,ND / 3.72 / ND
GLTLNSYGTS,VIYSDGRRTFYGDSVK,GYAAGTFDS,ND / ND / ND
GFTLNSYGIS,VIYSDGRRTFYPDSVK,GGAAGQFDS,ND / ND / ND
GFTLNVYGIS,VIYSDGRRTWYGDSVK,GRAAGTFDS,2.48 / 2.25 / 2.69
GTTLNSYGIS,VRYSDGRRTFYGDSVK,GRAAETFDS,ND / ND / ND

Excerpt, the first 2 entries:

CDR-H1,CDR-H2,CDR-H3,"replicates, log10 nM"
GFTLNSYGNS,VIYSDGRRTFYGDSVD,GVAAGTFDS,ND / ND / ND
GFLLNSYGIS,VIYSDGRRTFYGDSGK,GRARGTFDS,2.38 / ND / 4.10

Data: MIT Lincoln Laboratory AlphaSeq set, Engelhart et al. 2022, doi:10.1038/s41597-022-01779-4, as distributed in FLAb.